Data from publication PMC6962383.

Biological target: bovine trypsin (Bos taurus) (UniProt P00760)
Experiment: yeast surface display with four-gate FACS sorting and deep sequencing, enrichment normalized to ddG with purified-protein data

| ddG | Substance |
| --- | --- |
| 9.65 kcal/mol | A16C (from UniProt P00974) |
| 9.13 kcal/mol | A16D (from UniProt P00974) |
| 8.65 kcal/mol | A16E (from UniProt P00974) |
| 10.1 kcal/mol | A16F (from UniProt P00974) |
| 8.84 kcal/mol | A16H (from UniProt P00974) |
| 5.09 kcal/mol | A16I (from UniProt P00974) |
| 9.83 kcal/mol | A16K (from UniProt P00974) |
| 3.96 kcal/mol | A16M (from UniProt P00974) |
| 8.97 kcal/mol | A16N (from UniProt P00974) |
| 9.01 kcal/mol | A16P (from UniProt P00974) |
| 6.73 kcal/mol | A16Q (from UniProt P00974) |
| 4.85 kcal/mol | A16T (from UniProt P00974) |
| 8.04 kcal/mol | A16Y (from UniProt P00974) |
| 6.81 kcal/mol | G12C (from UniProt P00974) |
| 4.71 kcal/mol | G12D (from UniProt P00974) |
| 4.87 kcal/mol | G12E (from UniProt P00974) |
| 2.59 kcal/mol | G12F (from UniProt P00974) |
| 4.53 kcal/mol | G12H (from UniProt P00974) |
| 2.51 kcal/mol | G12I (from UniProt P00974) |
| 4.95 kcal/mol | G12K (from UniProt P00974) |
| 3.65 kcal/mol | G12L (from UniProt P00974) |
| 4.26 kcal/mol | G12M (from UniProt P00974) |
| 4.36 kcal/mol | G12N (from UniProt P00974) |

| ddG | Substance |
| --- | --- |
| 3.71 kcal/mol | G12P (from UniProt P00974) |
| 4.07 kcal/mol | G12Q (from UniProt P00974) |
| 4.32 kcal/mol | G12R (from UniProt P00974) |
| 3.09 kcal/mol | G12S (from UniProt P00974) |
| 3.86 kcal/mol | G12T (from UniProt P00974) |
| 3.24 kcal/mol | G12V (from UniProt P00974) |
| 2.49 kcal/mol | G12W (from UniProt P00974) |
| 3.77 kcal/mol | G12Y (from UniProt P00974) |
| 9.1 kcal/mol | G36C (from UniProt P00974) |
| 4.57 kcal/mol | G36D (from UniProt P00974) |
| 7.66 kcal/mol | G36E (from UniProt P00974) |
| 3.3 kcal/mol | G36F (from UniProt P00974) |
| 4.26 kcal/mol | G36H (from UniProt P00974) |
| 8.79 kcal/mol | G36I (from UniProt P00974) |
| 4.63 kcal/mol | G36K (from UniProt P00974) |
| 7.69 kcal/mol | G36L (from UniProt P00974) |
| 4.4 kcal/mol | G36M (from UniProt P00974) |
| 4.68 kcal/mol | G36N (from UniProt P00974) |
| 8.35 kcal/mol | G36P (from UniProt P00974) |
| 4.88 kcal/mol | G36Q (from UniProt P00974) |
| 3.54 kcal/mol | G36R (from UniProt P00974) |
| 3.42 kcal/mol | G36S (from UniProt P00974) |
| 4.54 kcal/mol | G36T (from UniProt P00974) |

| ddG | Substance |
| --- | --- |
| 6.93 kcal/mol | G36V (from UniProt P00974) |
| 6.11 kcal/mol | G36W (from UniProt P00974) |
| 4.23 kcal/mol | G36Y (from UniProt P00974) |
| 1.47 kcal/mol | G37A (from UniProt P00974) |
| 7.33 kcal/mol | G37C (from UniProt P00974) |
| 7.4 kcal/mol | G37D (from UniProt P00974) |
| 7.31 kcal/mol | G37E (from UniProt P00974) |
| 3.37 kcal/mol | G37F (from UniProt P00974) |
| 3.53 kcal/mol | G37H (from UniProt P00974) |
| 6.41 kcal/mol | G37I (from UniProt P00974) |
| 3.41 kcal/mol | G37K (from UniProt P00974) |
| 1.95 kcal/mol | G37L (from UniProt P00974) |
| 1.36 kcal/mol | G37M (from UniProt P00974) |
| 2.1 kcal/mol | G37N (from UniProt P00974) |
| 10.9 kcal/mol | G37P (from UniProt P00974) |
| 3.9 kcal/mol | G37Q (from UniProt P00974) |
| 3.4 kcal/mol | G37R (from UniProt P00974) |
| 3.01 kcal/mol | G37S (from UniProt P00974) |
| 4 kcal/mol | G37T (from UniProt P00974) |
| 5.68 kcal/mol | G37V (from UniProt P00974) |
| 5.24 kcal/mol | G37W (from UniProt P00974) |
| 4.18 kcal/mol | G37Y (from UniProt P00974) |
| 4.95 kcal/mol | I18C (from UniProt P00974) |

| ddG | Substance |
| --- | --- |
| 4.36 kcal/mol | I18D (from UniProt P00974) |
| 4.14 kcal/mol | I18E (from UniProt P00974) |
| 1.81 kcal/mol | I18F (from UniProt P00974) |
| 4.37 kcal/mol | I18G (from UniProt P00974) |
| 3.4 kcal/mol | I18H (from UniProt P00974) |
| 3.89 kcal/mol | I18K (from UniProt P00974) |
| 3.33 kcal/mol | I18L (from UniProt P00974) |
| 3.24 kcal/mol | I18M (from UniProt P00974) |
| 4.24 kcal/mol | I18N (from UniProt P00974) |
| 5.14 kcal/mol | I18P (from UniProt P00974) |
| 3.4 kcal/mol | I18Q (from UniProt P00974) |
| 3.48 kcal/mol | I18R (from UniProt P00974) |
| 4.84 kcal/mol | I18S (from UniProt P00974) |
| 4.57 kcal/mol | I18T (from UniProt P00974) |
| 2.97 kcal/mol | I18V (from UniProt P00974) |
| 2.53 kcal/mol | I18W (from UniProt P00974) |
| 2.17 kcal/mol | I18Y (from UniProt P00974) |
| 11.6 kcal/mol | K15C (from UniProt P00974) |
| 9.77 kcal/mol | K15P (from UniProt P00974) |
| 3.77 kcal/mol | P13A (from UniProt P00974) |
| 7.04 kcal/mol | P13C (from UniProt P00974) |
| 4.31 kcal/mol | P13D (from UniProt P00974) |
| 4.4 kcal/mol | P13E (from UniProt P00974) |

| ddG | Substance |
| --- | --- |
| 0.452 kcal/mol | P13F (from UniProt P00974) |
| 4.27 kcal/mol | P13G (from UniProt P00974) |
| 3.54 kcal/mol | P13H (from UniProt P00974) |
| 1.83 kcal/mol | P13I (from UniProt P00974) |
| 3.05 kcal/mol | P13K (from UniProt P00974) |
| 2.75 kcal/mol | P13L (from UniProt P00974) |
| 0.628 kcal/mol | P13M (from UniProt P00974) |
| 3.64 kcal/mol | P13N (from UniProt P00974) |
| 2.75 kcal/mol | P13Q (from UniProt P00974) |
| 1.53 kcal/mol | P13R (from UniProt P00974) |
| 4.04 kcal/mol | P13S (from UniProt P00974) |
| 4.01 kcal/mol | P13T (from UniProt P00974) |
| 1.68 kcal/mol | P13V (from UniProt P00974) |
| 1.08 kcal/mol | P13W (from UniProt P00974) |
| 1.08 kcal/mol | P13Y (from UniProt P00974) |
| 2.18 kcal/mol | R17A (from UniProt P00974) |
| 3.97 kcal/mol | R17C (from UniProt P00974) |
| 4.77 kcal/mol | R17D (from UniProt P00974) |
| 5.11 kcal/mol | R17E (from UniProt P00974) |
| 3.03 kcal/mol | R17F (from UniProt P00974) |
| 4.16 kcal/mol | R17G (from UniProt P00974) |
| 3.47 kcal/mol | R17H (from UniProt P00974) |
| 1.21 kcal/mol | R17I (from UniProt P00974) |

| ddG | Substance |
| --- | --- |
| 4.11 kcal/mol | R17K (from UniProt P00974) |
| -0.314 kcal/mol | R17L (from UniProt P00974) |
| -0.0474 kcal/mol | R17M (from UniProt P00974) |
| 3.19 kcal/mol | R17N (from UniProt P00974) |
| 9.82 kcal/mol | R17P (from UniProt P00974) |
| 3.69 kcal/mol | R17Q (from UniProt P00974) |
| 3.17 kcal/mol | R17S (from UniProt P00974) |
| 3.88 kcal/mol | R17T (from UniProt P00974) |
| 2.33 kcal/mol | R17V (from UniProt P00974) |
| 4.74 kcal/mol | R17W (from UniProt P00974) |
| 2.78 kcal/mol | R17Y (from UniProt P00974) |
| 2.45 kcal/mol | R39A (from UniProt P00974) |
| 6.25 kcal/mol | R39C (from UniProt P00974) |
| 5.43 kcal/mol | R39D (from UniProt P00974) |
| 6.12 kcal/mol | R39E (from UniProt P00974) |
| 2.67 kcal/mol | R39F (from UniProt P00974) |
| 2.29 kcal/mol | R39G (from UniProt P00974) |
| 2.88 kcal/mol | R39H (from UniProt P00974) |
| 3.47 kcal/mol | R39K (from UniProt P00974) |
| 3.57 kcal/mol | R39L (from UniProt P00974) |
| 3.61 kcal/mol | R39M (from UniProt P00974) |
| 4.06 kcal/mol | R39N (from UniProt P00974) |
| 3.87 kcal/mol | R39P (from UniProt P00974) |

| ddG | Substance |
| --- | --- |
| 3.62 kcal/mol | R39Q (from UniProt P00974) |
| 3.5 kcal/mol | R39S (from UniProt P00974) |
| 3.93 kcal/mol | R39T (from UniProt P00974) |
| 3.68 kcal/mol | R39V (from UniProt P00974) |
| 2.9 kcal/mol | R39W (from UniProt P00974) |
| 3.31 kcal/mol | R39Y (from UniProt P00974) |
| 2.03 kcal/mol | T11A (from UniProt P00974) |
| 3.48 kcal/mol | T11C (from UniProt P00974) |
| 3.52 kcal/mol | T11D (from UniProt P00974) |
| 2.48 kcal/mol | T11E (from UniProt P00974) |
| 2.38 kcal/mol | T11F (from UniProt P00974) |
| 1.39 kcal/mol | T11G (from UniProt P00974) |
| 4.27 kcal/mol | T11H (from UniProt P00974) |
| 1.92 kcal/mol | T11I (from UniProt P00974) |
| 3.71 kcal/mol | T11K (from UniProt P00974) |
| 2.44 kcal/mol | T11L (from UniProt P00974) |
| 2.66 kcal/mol | T11M (from UniProt P00974) |
| 3.78 kcal/mol | T11P (from UniProt P00974) |
| 3.76 kcal/mol | T11Q (from UniProt P00974) |
| 2.35 kcal/mol | T11R (from UniProt P00974) |
| 2.96 kcal/mol | T11S (from UniProt P00974) |
| 2.44 kcal/mol | T11V (from UniProt P00974) |
